PMC3348334 (Bioorganic & medicinal chemistry letters, 2012)

System: AR levels in HeLa-AR3A-PSA-(ARE)4-Luc13 cells
Assay: Western blotting analysis of AR levels in cell lysates

O=C(O)c1cccc(Nc2ccc([N+](=O)[O-])c3ccccc23)c1 [Compound 2, 3-((4-nitronaphthalen-1-yl)amino)benzoic acid]
effect on DHT induced increase in AR levels (0.1 nM DHT present): inhibited in a concentration dependent manner | effect on AR levels in the absence of DHT (no DHT): reduced AR levels
